Only a part is listed here, and it is no random draw. Active and inactive are the calls of the source. No stated cut-off is given here; in the data, active means inhibition above about 40%; inconclusive means no clear call, values can overlap the other calls; inactive means below that.
The molecules below were run on 7,8-diaminopelargonic acid synthase BioA (Mycobacterium tuberculosis) (assay: M. tuberculosis BioA enzyme inhibitors, primary screen, biochemical, plate reader, single point, HTS (AID 602481)). Details: purified M. tuberculosis BioA enzyme, at 9.99 µM, active compounds read high.

Row | SMILES | inhibition
1 | CCC(=O)N(c1ccccc1)C1(COC)CCN(CCn2nnn(CC)c2=O)CC1 | inactive: -0.0885%
2 | CCC(=O)N(c1ccccc1)C1(COC)CCN(CCc2cccs2)CC1 | inactive: -0.372%

From PubChem BioAssay AID602481 (Broad Institute, 2012)
